# Results as given in patent US9023354B2, “Combination therapy with MDM2 and EFGR inhibitors” (priority 2010, dated 2015).
# System: A549 cells
# Assay: DNA fragmentation (Cell Death Detection ELISA), measurement of apoptosis
# Details: Homo sapiens; for activation at 1 µM: A549, read-out: % Inc. Relative to Staurosporin (500 nM), DNA fragmentation
Structure (SMILES),activation at 1 µM [%],"activation at 10 µM (A549, read-out: % Inc. over Background, DNA fragmentation) [%]"
Cc1cc(Cl)cnc1NC(c1cccc(Cl)c1Cl)c1ccc2cccnc2c1O (stereo not drawn) [AD4-13147],48,
Oc1c(C(Nc2cc(Cl)c(Cl)cn2)c2ccc(Cl)cc2Cl)ccc2cccnc12 (stereo not drawn) [AD4-13178],47,
Cc1nc(NC(c2ccc(Cl)cc2)c2ccc3cccnc3c2O)ccc1Cl (stereo not drawn) [AD4-13161],,688
